Source: ChEMBL document CHEMBL1131639, “Structural analysis of thrombin complexed with potent inhibitors incorporating a phenyl group as a peptide mimetic and aminopyridines as guanidine substitutes” (J Med Chem, 1998)

Target: Prothrombin (Homo sapiens, UniProt P00734)

CC1CCN(C(=O)[C@H](CCCNC(=N)N)NS(=O)(=O)c2cccc3c(N(C)C)cccc23)CC1 was tested. Which IC50 did it give?
The IC50 was 300 nM.
